Assay results: US8753308B2
Only a part of the results on these compounds is given; other tests are left out.

Key:
[1] = in vivo; cited from earlier work
[2] = cited from earlier work
[3] = PK of sublingual sufentanil solution and ingested sufentanil dosage form vs IV sufentanil in Beagle dogs (Example 4); conditions: denominator literature half-life 139 min, listed as IV sufentanil
[4] = SUFENTA and Actiq package inserts; cited from earlier work
[5] = Human clinical PK study: sublingual sufentanil dosage forms vs IV sufentanil in healthy volunteers

Compound | bioavailability from the GI route [1] | pKa [2] | Therapeutic Time Ratio [3] | protein binding [4] | time spent above 50% of Cmax ([5]; average for the 12 volunteers) | Tmax ([5]; single administration)
CCC(=O)N(c1ccccc1)C1CCN(CCc2ccccc2)CC1 | 30% | 8.43 | – | – | – | –
CCC(=O)N(c1ccccc1)C1(COC)CCN(CCc2cccs2)CC1 | – | 8.01 | 0.03 | 91-93% | 10 min | 9.6 ± 1.8 min
